Our source for the IC50 values is patent publication US20130303507A1 (Novartis AG, priority 2011, published 2013).

The chains behind the UniProt entries cited, without tags or fusion partners.
UniProt P50750, whole entry: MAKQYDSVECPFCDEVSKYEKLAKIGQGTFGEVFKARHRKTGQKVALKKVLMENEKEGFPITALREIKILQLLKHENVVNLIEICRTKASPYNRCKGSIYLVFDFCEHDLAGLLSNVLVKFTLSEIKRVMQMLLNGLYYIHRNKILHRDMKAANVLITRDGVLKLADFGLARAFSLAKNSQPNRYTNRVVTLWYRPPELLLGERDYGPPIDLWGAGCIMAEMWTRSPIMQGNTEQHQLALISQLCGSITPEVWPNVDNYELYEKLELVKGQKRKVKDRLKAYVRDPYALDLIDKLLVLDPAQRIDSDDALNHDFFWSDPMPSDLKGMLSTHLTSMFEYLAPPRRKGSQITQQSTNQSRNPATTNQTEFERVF

The assay deals with Cdk9/cyclinT1 (Homo sapiens, UniProt P50750). Kind of assay: Cdk9/cyclinT1 IMAP protocol (fluorescence polarization). Particulars: IC-50, CDK9; lower limit of assay 0.0005 micromolar.

Regarding `COC[C@H](C)N[C@H]1CC[C@H](Nc2cc(-c3cccc(NCC4CCOC(C)(C)C4)n3)c(Cl)cn2)CC1` (stereo partly drawn) [Compound 456, 5′-chloro-N6-((2,2-dimethyltetrahydro-2H-pyran-4-yl)methyl)-N2′-(trans-4-(((S)-1-methoxypropan-2-yl)amino)cyclohexyl)-[2,4′-bipyridine]-2′,6-diamine], the half-inhibitory concentration (IC50) (usually the midpoint of a concentration-inhibition curve) came out at 3.7 nM.

`COC[C@H](C)N[C@H]1CC[C@H](Nc2cc(-c3cccc(NC[C@H]4CCOC(C)(C)C4)n3)c(Cl)cn2)CC1` [Compound 461, 5′-chloro-N6-(((S)-2,2-dimethyltetrahydro-2H-pyran-4-yl)methyl)-N2′-(trans-4-(((S)-1-methoxypropan-2-yl)amino)cyclohexyl)-[2,4′-bipyridine]-2′,6-diamine] displayed an IC50 of 3.4 nM. In turn, `COC[C@H](C)N[C@H]1CC[C@H](Nc2cc(-c3cccc(NC[C@@H]4CCOC(C)(C)C4)n3)c(Cl)cn2)CC1` [Compound 460, 5′-chloro-N6-(((R)-2,2-dimethyltetrahydro-2H-pyran-4-yl)methyl)-N2′-(trans-4-(((S)-1-methoxypropan-2-yl)amino)cyclohexyl)-[2,4′-bipyridine]-2′,6-diamine] gave an IC50 of 4.3 nM.
